We go through two compounds from ChEMBL document CHEMBL1141977, “Studies towards the next generation of antidepressants. Part 4: derivatives of 4-(5-fluoro-1H-indol-3-yl)cyclohexylamine with affinity for the serotonin transporter and the 5-HT1A receptor” (Bioorg Med Chem Lett, 2005).

Protein sequences, listed by entry. Tags and fused reporters are not part of them.
UniProt P31652, whole entry: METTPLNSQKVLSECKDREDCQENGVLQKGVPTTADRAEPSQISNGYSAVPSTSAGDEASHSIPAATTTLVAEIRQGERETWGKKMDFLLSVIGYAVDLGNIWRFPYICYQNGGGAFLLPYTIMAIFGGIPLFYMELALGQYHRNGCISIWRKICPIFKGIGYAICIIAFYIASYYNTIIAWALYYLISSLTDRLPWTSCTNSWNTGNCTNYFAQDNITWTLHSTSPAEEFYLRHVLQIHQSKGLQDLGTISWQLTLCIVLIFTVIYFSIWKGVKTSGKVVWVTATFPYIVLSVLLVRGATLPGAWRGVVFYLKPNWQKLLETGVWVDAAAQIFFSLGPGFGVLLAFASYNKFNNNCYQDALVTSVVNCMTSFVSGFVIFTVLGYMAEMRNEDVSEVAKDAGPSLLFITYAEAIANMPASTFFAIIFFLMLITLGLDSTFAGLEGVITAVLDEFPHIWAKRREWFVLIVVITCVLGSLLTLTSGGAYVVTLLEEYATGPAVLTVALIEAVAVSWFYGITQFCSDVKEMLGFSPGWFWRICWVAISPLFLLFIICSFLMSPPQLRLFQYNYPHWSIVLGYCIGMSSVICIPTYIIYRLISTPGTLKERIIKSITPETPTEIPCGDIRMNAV

For this assay, the target named is Sodium-dependent serotonin transporter (Rattus norvegicus, UniProt P31652). As to the kind of experiment: Binding affinity determined against Serotonin transporter determined by displacement of [3H]paroxetine from rat cortical membranes. The assay is classed as cell membranes, Membrane. Background: In a radioligand displacement assay an active substance lowers the binding of a labelled ligand.

As to `COc1ccccc1OCCN[C@H]1CC[C@@H](c2c[nH]c3ccc(F)cc32)CC1`, the Ki (in general, the dissociation constant of the complex between target and ligand, obtained from inhibition or displacement) is 3.98 nM.
`COc1ccccc1OCCN[C@H]1CC[C@H](c2c[nH]c3ccc(F)cc32)CC1` came in with a Ki of 6.48 nM.
